Results published in patent US8865733B2, “Medication and treatment for disease” (Altman Enterprises, LLC, priority 2008, dated 2014).

Test system: MS patients
Test: Treatment of individual MS patients with the medication (case reports, Patients A, B, C)
Format: in vivo, human
Source text: Patient A was a person, who was diagnosed with MS 14 months previously based on an MRI of their brain and a lumbar puncture. They presented with gait difficulties, muscle spasms in the lower extremities, and short term memory dysfunction.
Patient B was a person, who was diagnosed 9 months previously with MS following an MRI of their brain and a lumbar puncture. Patient B experienced neuralgia pain in their left upper extremities at an 8-9 on a 10 point scale, and numbness in their left torso. […] Patient B was given a twice daily tablet of the medication comprising 2 mg naltrexone hydrochloride, 0.5 mg clonazepam, 100 μg vitamin B12 as cyanocobalamin, 20 mg vitamin B6, and 10 mg coenzyme Q. After six weeks, the pain in Patient B's left extremity had reduced to 1-3 on a 10 point scale, and their numbness had been eliminated.
Patient C was a person, who had had MS for seven years. Diagnosis was confirmed by an MRI of their brain, lumbar puncture, and visual evolved response. Patient C experienced numbness on their right side, severe fatigue, generalized muscle spasms, and neuralgia pain of 5-6 on a 10 point scale. […]

B1: Avonex: a standard MS medication, given by injection (protein, UniProt P01574 22-187, looked up)
Interferon beta: MSYNLLGFLQRSSNFQCQKLLWQLNGRLEYCLKDRMNFDIPEEIKQLQQFQKEDAALTIYEMLQNIFAIFRQDSSSTGWNETIVENLLANVYHQINHLKTVLEEKLEKEDFTRGKLMSSLHLKRYYGRILHYLKAKEYSHCAWTIVRVEILRNFYFINRLTGYLRN
Patient A, injections of Avonex before the medication
  improvement under earlier treatment: no improvement
Patient C, person with MS, treated with Avonex before the medication
  improvement under earlier treatment: minimal improvement
